Screening data (PubChem BioAssay)
In the library only some 1.6% were active in any assay of this set; here they are far more common.
UUG fidelity: modulators of start codon recognition fidelity in yeast; AID 602363; activity score, % at 18.7 µM; S. cerevisiae UUG-firefly luciferase reporter, luminescence/redox ratio; actives 0.13% (n = 350,000);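 active = replicate mean at a twofold rise or more, about +100% in these data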;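 note: firefly luciferase made from a UUG start codon reports start codon fidelity; reporter light over untreated wells divided by growth signal over untreated wells; some hits fall short of that in this replicate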
ARNT TACC3 PPI: disruptors of human ARNT/TACC3 interaction | 390,000 tested, 0.66% active | AlphaScreen His-ARNT PAS-B/GST-TACC3 binding, luminescence; TACC3 fragment carries E629A point mutation | inhibition, % at 9.99 µM | AID 623870;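 active = mean inhibition of replicates at least 50% and at least half of replicates each reaching 50%; inconclusive = half or more replicates reach 50% but mean below 50%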;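 also: 0% = complete ARNT plus TACC3 wells and 100% = ARNT alone without TACC3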
Vif inh: HIV Vif inhibition; HEK293T cells, Vif self-association by quenched fluorescence, imaging, 24 h; inhibition, % at 7.49 µM; 340,000 tested, 0.35% active; AID 602346; in the data active = inhibition above about 50%, passing the limit was not always enough; inconclusive = no clear call, values can overlap the other calls; inactive = below about 31%
PglD inh: inhibitors of Campylobacter jejuni PglD acetyltransferase | inhibition, % at 12.5 µM | 360,000 tested, 0.098% active | purified PglD enzyme, DTNB colorimetric CoA detection | AID 602405; in the data active = inhibition above about 16%, passing the limit was not always enough; inconclusive = no clear call, values can overlap the other calls
CAL PDZ FP-1: CAL PDZ (human) peptide binding inhibition. Q9HD26. purified CAL PDZ, TMR-peptide fluorescence polarization, 1 h. inhibition, % at 24.9 µM. 300,000 tested, 0.92% active. AID 602252;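 active = mean inhibition of at least 30% with at least half of replicates also reaching 30%; inconclusive = no clear call, values can overlap the other calls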;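 also: 0% = DMSO neutral control and 100% = excess unlabeled competitor peptide PRC23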
CAL PDZ FP-2: human CAL PDZ-peptide interaction inhibition. 330,000 tested, 0.02% active. Q9HD26. AID 504414. inhibition, % at 20 µM. purified CAL PDZ, TMR-peptide fluorescence polarization, 1 h;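 active = highest replicate inhibition of at least 40%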;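 also: plate controls were DMSO neutral control wells for no effect and unlabeled competitor peptide control wells for full effect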
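Read-out basis: mP drop reported as inhibition | Assay system: Tagged CAL PDZ protein CerCALP, purified | Benchmarks: Unlabelled peptide for full inhibition, DMSO wells as neutral | Schedule: 1 h incubation at room temperature before polarization reading | Buffer or medium: Sodium phosphate/NaCl buffer pH 7.4 with TCEP, IgG, Thesit | Doses: Single point, 20 µM | Measured by: Fluorescence polarization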
* = called active by the depositor; ? = inconclusive; / = no result given.

Letter code – A = UUG fidelity; B = ARNT TACC3 PPI; C = Vif inh; D = PglD inh; E = CAL PDZ FP-1; F = CAL PDZ FP-2
> CC1=CC(C)(C)N(S(=O)(=O)c2ccc(F)cc2)c2ccccc21
  A = -1; B = -18; C = -15; D = 7; E = -4; F = -1
> COc1cccc(NC(=O)N[C@H]2C=C[C@@H](CC(=O)Nc3ccccc3)O[C@@H]2CO)c1
  A = -9; B = 2; C = /; D = 5; E = /; F = /
> CC1CCCN(C(=O)Cn2cnc3c2c(=O)n(C)c(=O)n3C)C1 (stereo not drawn)
  A = -12; B = -4; C = 6; D = 2; E = 36*; F = /
> NS(=O)(=O)c1ccc(NC(=O)COC(=O)CCCN2C(=O)c3cccc4cccc(c34)C2=O)cc1
  A = -6; B = -1; C = ?; D = -5; E = 60*; F = -2
> COc1cc(C2NC(=O)NC(C)=C2C(=O)OC2CCCCC2)cc(Br)c1O (stereo not drawn)
  A = 19; B = 1; C = 8; D = -1; E = -4; F = 88*
> CCOC(=O)C1=C(C)NC(=O)NC1c1cc(Br)c(O)c(OC)c1 (stereo not drawn)
  A = -3; B = -4; C = /; D = -4; E = -1; F = /
> Cc1ccc(S(=O)(=O)CCC(=O)Nc2nc(-c3ccncc3)cs2)cc1
  A = -4; B = -3; C = 5; D = -1; E = -2; F = -3
> O=C(CCS(=O)(=O)c1ccccc1)Nc1nc(-c2ccccn2)cs1
  A = -27; B = 65*; C = -11; D = -2; E = 1; F = -1
> O=C(CCS(=O)(=O)c1ccc(F)cc1)Nc1nc(-c2ccccn2)cs1
  A = -36; B = 60*; C = -9; D = -4; E = -4; F = -2
> O=C(C[C@@H]1C=C[C@H](NS(=O)(=O)c2ccccc2)[C@@H](CO)O1)N1CCc2ccccc2C1
  A = -9; B = 4; C = /; D = -1; E = /; F = /

Letter code – A = UUG fidelity; B = ARNT TACC3 PPI; C = Vif inh; D = PglD inh; E = CAL PDZ FP-1; F = CAL PDZ FP-2
> Nc1cc(C(=O)c2ccccc2)ccc1[N+](=O)[O-]
  A = /; B = 14; C = 6; D = /; E = 37*; F = -2
> CNC[C@H]1Oc2ccc(NS(=O)(=O)c3cn(C)cn3)cc2CC(=O)N([C@@H](C)CO)C[C@H]1C
  A = 4; B = 1; C = /; D = 0; E = /; F = /
> CCC(=O)Nc1ccc2c(c1)OC[C@H](C)N(C(=O)COC)C[C@H](C)[C@H](OC)CN(C)C2=O
  A = /; B = 1; C = /; D = -1; E = /; F = /
> COCCNc1nc2c(c(=O)n(C)c(=O)n2C)n1CCCc1ccccc1
  A = 1; B = /; C = 5; D = -2; E = /; F = /
> C=CCn1c(NCCOC)nc2c1c(=O)n(C)c(=O)n2C
  A = -5; B = -5; C = -2; D = 0; E = 44*; F = 1
> C[C@@H]1CN([C@@H](C)CO)C(=O)c2cc(NC(=O)CCCN(C)C)ccc2O[C@@H]1CN(C)C(=O)NC1CCCCC1
  A = /; B = 0; C = /; D = 3; E = /; F = /
> COc1cccc(CNc2cnc3ccccc3c2)c1O
  A = -18; B = 20; C = /; D = 1; E = 2; F = -2
> COc1cccc(CNc2nc3ccccc3n2C)c1O
  A = -20; B = -2; C = -4; D = 5; E = 44*; F = 18
> C[C@H]1CN([C@@H](C)CO)C(=O)c2cc(-c3cccnc3)cnc2O[C@H]1CN(C)C(=O)C1CCOCC1
  A = -9; B = -7; C = /; D = 1; E = /; F = /
> COc1ccccc1S(=O)(=O)N[C@H]1C=C[C@H](CC(=O)N2CCCCC2)O[C@@H]1CO
  A = /; B = -7; C = /; D = 16; E = /; F = /

Letter code – A = UUG fidelity; B = ARNT TACC3 PPI; C = Vif inh; D = PglD inh; E = CAL PDZ FP-1; F = CAL PDZ FP-2
> CC(C)NC(=O)Nc1ccc2c(c1)C(=O)N([C@@H](C)CO)C[C@@H](C)[C@H](CN(C)C(=O)c1ccncc1)OCCCC[C@@H](C)O2
  A = /; B = -1; C = /; D = -2; E = /; F = /
> O=C(O)c1ccc(N=Nc2c(O)[nH]c3ccc(Br)cc23)cc1
  A = -12; B = /; C = 5; D = 5; E = -5; F = /
> O=c1ccc2cc3c([nH]c4ccc(Br)cc43)oc-2c1O
  A = -15; B = 17; C = 4; D = 8; E = 5; F = 48*
> O=C(Nc1ccc(S(=O)(=O)Nc2ncccn2)cc1)c1ccccc1NS(=O)(=O)c1ccc(F)cc1
  A = /; B = -5; C = -2; D = /; E = 0; F = -2
> O=C(O)/C=C/c1ccc(S(=O)(=O)Nc2ccccc2C(=O)Nc2ccc(F)cc2)cc1
  A = -9; B = 47*; C = 16; D = 9; E = -4; F = 0
> CCC(C)(C(=O)NC1CCCC1)N(C(=O)CC1NC(=O)NC1=O)c1ccc(C)cc1 (stereo not drawn)
  A = -6; B = 0; C = 5; D = -1; E = 60*; F = 0
> OCC1(CCOc2ccccc2)CCN(Cc2cccn2-c2ncccn2)CC1
  A = /; B = 2; C = 19; D = /; E = 56*; F = -1
> CN(C)CCOC(=O)c1sc2ccccc2c1Cl
  A = -12; B = -4; C = 4; D = -6; E = 84*; F = 0
> O=c1c2ccccc2nc(SCc2ccccc2F)n1C1CCCC1
  A = -5; B = 47*; C = 4; D = 0; E = 10; F = -1
> COc1ccc2cc(C(=O)C3CCCN(C(=O)CSc4nnc(C)o4)C3)ccc2c1 (stereo not drawn)
  A = /; B = /; C = -2; D = /; E = 28; F = -2

Letter code – A = UUG fidelity; B = ARNT TACC3 PPI; C = Vif inh; D = PglD inh; E = CAL PDZ FP-1; F = CAL PDZ FP-2
> Cc1nnc(SCC(=O)N2CCCC(C(=O)c3ccc(Cl)cc3)C2)o1 (stereo not drawn)
  A = 1; B = -4; C = 14; D = 3; E = 38*; F = /
> Cc1ccc2c(c1)N(CC(=O)N1CCCCCC1)C(=O)C(C)O2 (stereo not drawn)
  A = -11; B = -5; C = 69*; D = -4; E = -2; F = -2
> Cc1ccc2c(c1)N(CC(=O)N1CCOCC1)C(=O)C(C)O2 (stereo not drawn)
  A = -2; B = 18; C = -6; D = 5; E = -2; F = 0
> COc1ccc(CN(C)C[C@H]2OCCCC[C@H](C)Oc3ccc(NS(=O)(=O)c4ccccc4)cc3C(=O)N([C@H](C)CO)C[C@H]2C)cc1
  A = 22; B = -9; C = /; D = -2; E = /; F = /
> CC(C)CSc1ncnc2c1oc1nc3c(cc12)COC(C)(C)C3
  A = 14; B = 5; C = -3; D = -5; E = /; F = -3
> C=CCSc1ncnc2c1oc1nc3c(cc12)COC(C)(C)C3
  A = /; B = -5; C = -2; D = /; E = 84*; F = -1
> Cc1cc(NC(=O)CSc2nc3ccccc3c(=O)n2CCCC(=O)NCc2ccco2)n[nH]1
  A = -12; B = -7; C = 51*; D = -2; E = -3; F = 1
> Cc1nnc(NC(=O)Cn2nc(C)c3ccccc3c2=O)s1
  A = -1; B = -2; C = 70*; D = 2; E = -3; F = 1
> COc1ccc(NC(=O)Cn2nc(C)c3ccccc3c2=O)cc1
  A = -13; B = -3; C = -1; D = 0; E = 37*; F = 33
> CC(C)Cc1nnc(NC(=O)CCC(=O)N2CCN(c3ccc(F)cc3)CC2)s1
  A = -3; B = 3; C = 1; D = -4; E = 41*; F = -1

Retrieved by compound from above, 3 records:
Letter code – A = UUG fidelity; B = ARNT TACC3 PPI; C = Vif inh; D = PglD inh; E = CAL PDZ FP-1; F = CAL PDZ FP-2
> Cc1nnc(SCC(=O)N2CCCC(C(=O)c3ccc(Cl)cc3)C2)o1 (stereo not drawn)
  A = 1; B = -4; C = 14; D = 3; E = 38*; F = /
> CC(C)CSc1ncnc2c1oc1nc3c(cc12)COC(C)(C)C3
  A = 14; B = 5; C = -3; D = -5; E = /; F = -3
> Cc1cc(NC(=O)CSc2nc3ccccc3c(=O)n2CCCC(=O)NCc2ccco2)n[nH]1
  A = -12; B = -7; C = 51*; D = -2; E = -3; F = 1

(more compounds)
Letter code – A = UUG fidelity; B = ARNT TACC3 PPI; C = Vif inh; D = PglD inh; E = CAL PDZ FP-1; F = CAL PDZ FP-2
> COC(=O)c1ccc(CN2CCCC(CNC(=O)Cc3ccc(OC)cc3)C2)cc1 (stereo not drawn)
  A = -11; B = -2; C = -1; D = -3; E = -4; F = 0
> COc1ccc(CC(=O)NCC2CCCN(Cc3ccc(OC(F)(F)F)cc3)C2)cc1 (stereo not drawn)
  A = -9; B = -4; C = -6; D = -3; E = 63*; F = -4
> C=C1c2cccc(O)c2C(O)=C2C(=O)[C@]3(O)C(O)=C(C(N)=O)C(=O)[C@@H](N(C)C)[C@@H]3[C@@H](O)[C@H]12
  A = -7; B = 61*; C = 11; D = -2; E = 11; F = 1
> CCC(C)C(NC(=O)C(C)NC(=O)CNC(=O)CNC(=O)OCc1ccccc1)C(=O)OC (stereo not drawn)
  A = -9; B = 0; C = 18; D = -7; E = 47*; F = -1
> CCOC(=O)N1CCN(C(=O)CNCc2cccs2)CC1
  A = -14; B = 4; C = -2; D = -7; E = 47*; F = -2
> COc1cc(NCCCC(C)N)c2ncccc2c1 (stereo not drawn)
  A = -12; B = 67*; C = /; D = /; E = -4; F = /
